Measured values from ChEMBL document CHEMBL4177755, “Combating Drug-Resistant Fungi with Novel Imperfectly Amphipathic Palindromic Peptides” (J Med Chem, 2018).
The source made the active and inactive calls. No cut-off for these calls is given here.

System: Escherichia coli
Assay: Disruption of cytoplasmic membrane electrical potential in Escherichia coli ATCC 25922 at MBC after 800 secs by DiSC3-5 dye-based fluorescence spectrophotometric method
Assay type: functional, organism-based
How it was run: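 Cells were loaded with the membrane potential-sensitive dye DiSC3-5, and its release on peptide treatment (various concentrations, including 1× MBC/MFC) was monitored as increasing fluorescence over 800 s.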

Compound: O=C(O)c1cn(C2CC2)c2cc(N3CCNCC3)c(F)cc2c1=O [CIPROFLOXACIN]
- Activity: inactive
